The list shows a part of the results, in another mix than the full data. Calls of active or inactive are those of the source. No stated cut-off is given here; in the data, active means inhibition above about 50%; inactive means the rest.

Sequences of proteins named here, by UniProt entry; tags and fusion partners are left off. A change or cut given only in a name is not applied to a line headed by its entry.
UniProt O96028: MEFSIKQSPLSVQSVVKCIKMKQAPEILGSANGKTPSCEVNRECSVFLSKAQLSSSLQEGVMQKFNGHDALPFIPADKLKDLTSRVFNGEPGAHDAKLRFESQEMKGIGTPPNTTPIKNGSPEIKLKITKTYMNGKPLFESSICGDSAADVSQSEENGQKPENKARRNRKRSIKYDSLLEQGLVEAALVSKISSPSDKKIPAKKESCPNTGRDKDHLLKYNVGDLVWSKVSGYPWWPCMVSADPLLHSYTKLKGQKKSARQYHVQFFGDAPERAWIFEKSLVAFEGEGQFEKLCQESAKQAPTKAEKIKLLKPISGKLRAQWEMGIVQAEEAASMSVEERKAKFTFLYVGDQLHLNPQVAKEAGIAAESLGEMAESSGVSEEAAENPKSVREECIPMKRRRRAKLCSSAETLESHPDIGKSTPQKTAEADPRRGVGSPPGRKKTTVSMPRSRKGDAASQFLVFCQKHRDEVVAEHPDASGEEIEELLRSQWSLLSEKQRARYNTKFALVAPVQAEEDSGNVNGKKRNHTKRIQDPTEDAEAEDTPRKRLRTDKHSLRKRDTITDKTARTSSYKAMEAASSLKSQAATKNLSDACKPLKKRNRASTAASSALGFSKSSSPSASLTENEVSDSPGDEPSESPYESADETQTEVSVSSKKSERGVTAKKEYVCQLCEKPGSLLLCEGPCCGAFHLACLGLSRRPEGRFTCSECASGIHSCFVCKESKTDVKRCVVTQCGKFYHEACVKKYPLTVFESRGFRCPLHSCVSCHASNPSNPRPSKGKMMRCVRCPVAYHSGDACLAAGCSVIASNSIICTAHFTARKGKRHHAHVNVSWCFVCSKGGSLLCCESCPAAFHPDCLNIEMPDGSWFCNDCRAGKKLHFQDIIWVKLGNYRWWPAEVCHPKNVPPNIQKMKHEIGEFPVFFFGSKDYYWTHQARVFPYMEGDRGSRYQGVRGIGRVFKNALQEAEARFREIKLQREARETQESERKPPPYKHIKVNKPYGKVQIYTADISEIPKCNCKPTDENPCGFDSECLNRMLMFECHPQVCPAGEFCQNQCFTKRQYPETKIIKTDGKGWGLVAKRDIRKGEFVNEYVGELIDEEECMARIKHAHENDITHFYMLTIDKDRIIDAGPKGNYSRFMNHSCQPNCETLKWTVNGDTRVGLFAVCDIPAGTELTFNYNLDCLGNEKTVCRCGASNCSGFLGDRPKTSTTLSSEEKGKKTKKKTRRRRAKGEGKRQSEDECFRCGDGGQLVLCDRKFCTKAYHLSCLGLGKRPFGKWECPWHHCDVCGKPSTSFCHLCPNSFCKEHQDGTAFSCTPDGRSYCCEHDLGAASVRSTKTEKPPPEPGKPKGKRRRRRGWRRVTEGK

This is an account of results in PubChem BioAssay AID743445 (Broad Institute, 2014).

For this experiment, the target named is Histone-lysine N-methyltransferase NSD2 (Homo sapiens) (UniProt O96028). The experiment can be described thus: blockers of NSD2 lysine methylation activity – biochemical, AlphaScreen, single concentration, set 2, primary screen (AID 743445). The conditions noted are these: NSD2 peptide methylation, 120 min, at 12.5 µM, hits give high values.
On to `CC(NC(=O)COC(=O)C(O)(c1ccccc1)c1ccccc1)c1ccccc1` (stereo not given), for which the inhibition is inactive: -3.15%. The value for `Cc1ccccc1OP(=O)(Nc1ccccn1)Oc1ccccc1C` was inactive: 20.5%; that for `O=c1c2cc([N+](=O)[O-])ccc2[nH]c2c([N+](=O)[O-])cc([N+](=O)[O-])cc12` was inactive: -4.19%. Turning to `CN(C)C(=O)Oc1noc2ccccc12`, the inhibition was inactive: -3.35%. Consider `COC(=O)c1cc2c(s1)N=C(c1ccccc1)N(C)P2(=O)N1CCOCC1` (stereo not given), for which the inhibition is inactive: 14.7%.

Regarding `CC(=O)NC(SC(=S)N(CC(C)C)CC(C)C)C(Cl)(Cl)Cl` (stereo not given), the inhibition was inactive: 5.41%. The value for `Cc1ccc(OP(=O)(Nc2ccccn2)Oc2ccc(C)cc2)cc1` was inactive: -2.27%; that for `O=C(OC1CN2CCC1CC2)c1ccccc1` (stereo not given) was inactive: -0.823%; that for `O=P1(N(CCCl)CCCl)OCCC2CCCCN21` (stereo not given) was inactive: -0.802%.

Take `CCNC(=S)/N=C(\N)N[N+](=O)[O-]`: the inhibition was inactive: -0.03%. The value for `O=C(NC1CCS(=O)(=O)C1)NP(=S)(Oc1ccccc1)Oc1ccccc1` (stereo not given) was inactive: 2.71%; that for `c1ccc(-c2nn[nH]n2)c(-c2nn[nH]n2)c1` was inactive: -5.05%; that for `Cc1ccc(NP(=O)(Oc2cccc(C)c2)Oc2cccc(C)c2)nc1` was inactive: -3.94%. In the case of `CC(=O)Nc1ccc([As](=O)(O)O)c(O)c1`, the inhibition was inactive: 0.481%. The value for `CC(=O)Nc1ccc(Oc2c([N+](=O)[O-])cc([N+](=O)[O-])cc2[N+](=O)[O-])cc1` was inactive: 4.74%; that for `CC(=O)c1ccc(N2CC2c2ccncc2)cc1` (stereo not given) was inactive: 7.56%. The value for `N#C/C(=C\c1ccc(N(CCBr)CCBr)cc1)C(N)=O` was inactive: 9.27%.

As to `COC(=O)C1(C)COP(=O)(NCc2ccccc2)OC1` (stereo not given), the inhibition was inactive: -1.05%.

Consider `Cc1ccccc1CN(C)C(=O)COC(=O)C(O)(c1ccccc1)c1ccccc1`, for which the inhibition is inactive: 0.035%. The value for `CCc1cc(O)c([N+](=O)[O-])c(C)c1[N+](=O)[O-]` was inactive: 1.39%; that for `CC(C)(C)C(=O)NC(Sc1ccccc1)C(Cl)(Cl)Cl` (stereo not given) was inactive: -1.55%. The value for `O=P1(Nc2nc3ccc(Cl)cc3s2)COc2ccccc2O1` (stereo not given) was inactive: 17.9%; that for `CCOc1ccc(C2=NCC(CBr)S2)cc1` (stereo not given) was inactive: 1.61%; that for `c1nnnn1CCn1cnnn1` was inactive: -1.96%. Consider `CC(C)C(=O)NC(Sc1ccccc1)C(Cl)(Cl)Cl` (stereo not given), for which the inhibition is inactive: -2.64%. The value for `O=P(Nc1nccs1)(c1ccccc1)c1ccccc1` was inactive: -1.47%.

For the compound `C/C(N)=N\P(=O)(OCc1ccccc1)OCc1ccccc1`, the inhibition is inactive: 1.04%.

For the compound `C(Cc1nn[nH]n1)Cc1nn[nH]n1`, the inhibition is inactive: -1.07%. Regarding `Nc1ccc([As](=O)(O)c2ccc([N+](=O)[O-])cc2)cc1`, the inhibition was inactive: -3.88%.

For the compound `O=C(OC1CN2CCC1CC2)c1cccc(Cl)c1` (stereo not given), the inhibition is inactive: 1.56%. The value for `O=[N+]([O-])c1ccc(O)c(/C=N/Nc2ccc([N+](=O)[O-])cc2[N+](=O)[O-])c1` was inactive: 8.43%.

`CC(=O)NC(SC(=S)N(C)C)C(Cl)(Cl)Cl` (stereo not given): the inhibition is inactive: -1.42%. The value for `O=[N+]([O-])c1ncn(CCn2cnc([N+](=O)[O-])n2)n1` was inactive: -3.48%; that for `O=P(Nc1nc2ccccc2s1)(c1ccccc1)c1ccccc1` was inactive: -5.3%. The value for `COc1ccc(N)c([N+](=O)[O-])c1[N+](=O)[O-]` was inactive: 11.1%; that for `Nc1ccc(CCCCOc2ccccc2)cc1` was inactive: 18.1%. The value for `O=P(Nc1ccccn1)(c1ccc(Br)cc1)c1ccc(Br)cc1` was inactive: -7.9%; that for `CN(C)C1(CNC(=O)c2ccc(Cl)c(S(N)(=O)=O)c2)CCCCC1` was inactive: -4.47%. Regarding `COC(=O)C1(C)COP(=O)(Nc2ccccc2)OC1` (stereo not given), the inhibition is inactive: -1.25%. The value for `O=[N+]([O-])c1cccc(NC2=NCC(CBr)S2)c1` (stereo not given) was inactive: -0.858%; that for `O=C(O)CNc1ccc([As](=O)(O)O)cc1` was inactive: -3.72%. The value for `CC(C)(C)C(=O)NC(Sc1ccncn1)C(Cl)(Cl)Cl` (stereo not given) was inactive: 32.6%; that for `O=C(Nc1cc([As](=O)(O)O)ccc1O)c1ccccc1` was inactive: 1.91%. The value for `O=P1(N(CCCl)CCCl)OCCCS1` (stereo not given) was inactive: -2.08%; that for `CC(C)c1nc(Nc2ccccc2)n(P(=O)(N(C)C)N(C)C)n1` was inactive: -0.877%; that for `CC(C)=N/N=C(\N)N[N+](=O)[O-]` was inactive: -3%. `CN(C)C(=O)OCCc1n(C)cc[n+]1C`: the inhibition is inactive: -0.99%. The value for `CC1CCN(C(=O)Oc2c(Cl)cc(Cl)c3cccnc23)CC1` was inactive: -1.19%. Take `c1cc(-c2nn[nH]n2)ccc1-c1nn[nH]n1`: the inhibition was inactive: -0.983%. The value for `Nc1ccc([As](=O)(O)c2ccc(N)cc2)cc1` was inactive: -0.47%. The value for `CCN(/C(=N/P(=O)(N1CCOCC1)N1CCOCC1)N1CCOCC1)c1ccc(OC)cc1` was inactive: 0.663%; that for `O=[N+]([O-])c1cccc2n[nH]nc12` was inactive: 2.39%; that for `CC(=O)N1C2C3N(C(C)=O)C1C1N(C(C)=O)C(C(N1C(C)=O)N3C(C)=O)N2C(C)=O` was inactive: 0.226%.

In the case of `Cc1ccc(NP(=O)(Oc2ccccc2)Oc2ccccc2)nc1`, the inhibition is inactive: -4.91%. The value for `CCc1nc2c(n1)c1c(non1O)c1c2no[n+]1[O-]` was inactive: 10.6%.

As for `O=[N+]([O-])c1cc([N+](=O)[O-])c(CCNc2ccccc2)c([N+](=O)[O-])c1`, the inhibition is inactive: 3.73%. Take `COc1ccc(C2=NCC(CBr)S2)cc1` (stereo not given): the inhibition is inactive: -3.57%. On to `O=[N+]([O-])C1C(O)C(O)C([N+](=O)[O-])C(O)C1O` (stereo not given), for which the inhibition is inactive: 0.548%. The value for `Nc1cc(N)c2nonc2c1[N+](=O)[O-]` was inactive: 7.16%.

Take `Oc1ccccc1CNc1ccccn1`: the inhibition was inactive: -1.67%. For `O=C(NC(Sc1ccncn1)C(Cl)(Cl)Cl)c1ccccc1` (stereo not given), the inhibition was inactive: 27.6%. With `COc1ccccc1OP(=O)(Nc1ccc(C)cn1)Oc1ccccc1OC`, the inhibition is inactive: -4.09%. The value for `Cc1ccc(OP(=O)(Nc2nccs2)Oc2ccc(C)cc2)cc1` was inactive: 0.667%. The value for `CN1CCCC(OC(=O)C(c2ccccc2)c2ccccc2)C1` (stereo not given) was inactive: -32.8%; that for `Clc1ccc(Cl)c(NC2=NCC(CBr)S2)c1` (stereo not given) was inactive: 1.83%.

In general, inhibition refers to the change of the read-out against control, counted positive when it falls.
